Assay results from patent publication US20030148462A1, “Dual inhibition of sister chromatid separation at metaphase” (President and fellows of Harvard College, priority 2001, published 2003).

The chains behind the UniProt entries cited, without tags or fusion partners. Where a name states a change or a piece, a line headed by the entry shows the natural chain unless it says otherwise.
UniProt Q14674: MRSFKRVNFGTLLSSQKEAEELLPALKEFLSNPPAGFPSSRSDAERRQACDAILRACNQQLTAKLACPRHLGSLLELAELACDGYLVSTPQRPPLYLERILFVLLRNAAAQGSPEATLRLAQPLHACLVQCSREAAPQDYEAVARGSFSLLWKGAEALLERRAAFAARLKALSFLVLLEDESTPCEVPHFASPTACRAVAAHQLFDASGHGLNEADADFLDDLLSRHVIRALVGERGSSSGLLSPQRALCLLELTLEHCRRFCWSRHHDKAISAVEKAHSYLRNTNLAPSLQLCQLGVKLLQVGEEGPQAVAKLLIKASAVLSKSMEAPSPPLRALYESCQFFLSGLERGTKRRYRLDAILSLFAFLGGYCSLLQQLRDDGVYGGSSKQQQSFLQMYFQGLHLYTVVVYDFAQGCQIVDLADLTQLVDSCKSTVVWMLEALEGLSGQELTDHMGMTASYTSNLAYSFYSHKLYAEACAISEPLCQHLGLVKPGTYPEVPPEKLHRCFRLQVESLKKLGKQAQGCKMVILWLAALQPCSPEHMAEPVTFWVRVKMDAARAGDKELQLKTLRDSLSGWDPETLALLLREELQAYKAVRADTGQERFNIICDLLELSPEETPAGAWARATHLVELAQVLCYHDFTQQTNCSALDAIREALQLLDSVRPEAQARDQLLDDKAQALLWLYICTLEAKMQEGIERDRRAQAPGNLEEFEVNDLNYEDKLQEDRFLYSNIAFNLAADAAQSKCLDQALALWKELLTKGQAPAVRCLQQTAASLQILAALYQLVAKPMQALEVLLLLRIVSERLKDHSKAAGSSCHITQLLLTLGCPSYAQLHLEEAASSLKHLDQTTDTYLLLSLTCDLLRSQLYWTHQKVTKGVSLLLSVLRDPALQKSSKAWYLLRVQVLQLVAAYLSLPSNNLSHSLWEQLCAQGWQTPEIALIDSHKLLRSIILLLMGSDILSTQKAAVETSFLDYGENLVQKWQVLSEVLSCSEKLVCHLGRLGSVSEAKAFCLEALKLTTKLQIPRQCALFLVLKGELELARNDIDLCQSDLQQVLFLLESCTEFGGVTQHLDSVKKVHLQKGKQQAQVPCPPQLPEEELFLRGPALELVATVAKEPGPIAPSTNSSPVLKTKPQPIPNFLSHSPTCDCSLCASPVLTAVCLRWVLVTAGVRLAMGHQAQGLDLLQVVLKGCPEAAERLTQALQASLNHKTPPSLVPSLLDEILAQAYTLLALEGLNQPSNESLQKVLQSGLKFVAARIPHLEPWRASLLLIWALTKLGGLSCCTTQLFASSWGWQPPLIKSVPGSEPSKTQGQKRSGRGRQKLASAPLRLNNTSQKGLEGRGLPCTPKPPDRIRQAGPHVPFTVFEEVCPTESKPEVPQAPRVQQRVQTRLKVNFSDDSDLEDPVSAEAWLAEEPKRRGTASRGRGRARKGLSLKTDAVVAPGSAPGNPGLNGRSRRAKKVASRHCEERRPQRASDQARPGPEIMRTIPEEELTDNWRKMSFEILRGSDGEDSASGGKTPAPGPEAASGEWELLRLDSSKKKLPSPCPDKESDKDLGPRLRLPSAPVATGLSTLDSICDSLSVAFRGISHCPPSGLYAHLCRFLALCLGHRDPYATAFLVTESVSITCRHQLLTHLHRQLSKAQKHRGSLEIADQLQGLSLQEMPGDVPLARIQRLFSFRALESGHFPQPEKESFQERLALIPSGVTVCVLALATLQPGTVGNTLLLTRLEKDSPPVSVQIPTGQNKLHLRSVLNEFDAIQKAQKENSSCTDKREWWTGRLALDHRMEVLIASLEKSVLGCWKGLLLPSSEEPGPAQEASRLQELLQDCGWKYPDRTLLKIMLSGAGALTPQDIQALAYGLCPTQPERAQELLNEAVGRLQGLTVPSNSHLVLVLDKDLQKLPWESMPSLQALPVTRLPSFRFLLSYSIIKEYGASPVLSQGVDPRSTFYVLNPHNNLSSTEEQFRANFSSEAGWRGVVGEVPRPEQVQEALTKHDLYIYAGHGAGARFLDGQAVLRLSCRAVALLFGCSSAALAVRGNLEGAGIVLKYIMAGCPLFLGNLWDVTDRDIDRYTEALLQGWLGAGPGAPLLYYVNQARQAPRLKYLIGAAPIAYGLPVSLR

Biological target: T1, separase Ser1126 (Homo sapiens, UniProt Q14674)
T1 construct: Full-length human separase was PCR-amplified from a human fetal thymus cDNA library; made in house; host or cells: 293T cells (cotransfected, unsynchronized)
Assay: Ser1126-specific in vitro kinase assays with LC-MS/MS
Format: biochemical
Details: 1 mM ATP
Text: FIGS. 6A-6E illustrate that the inhibitory phosphorylation of separase is high in metaphase and declines upon anaphase onset. (A) depicts FACS and Western analyses of synchronized HeLaS3 cells undergoing mitosis. (B) depicts quantification of cell cycle distribution and phosphorylation status of separase at Ser1126 for the samples shown in (A). (C) depicts a nano-scale microcapillary LC-MS/MS analysis of native separase phosphorylation state. Shown are the selected reaction, extracted-ion chromatograms corresponding to the unphosphorylated (upper trace) and phosphorylated (bottom trace) Glu1115-Lys1130 native tryptic peptide (blue and green) and heavy internal standard (brown and red). […] Shown is the phosphorylation status of Ser1126 in percent as determined by incubation of affinity-purified securin/separase with various pure kinases in the presence of ATP (1 mM) followed by LC-MS/MS analysis. […]
Quantitative mass spectrometry was also used with isotopically labeled peptides to determine which kinase was able to phosphorylate separase in vitro at its inhibitory site. […]
Coomassie stained securin and separase bands were digested in-gel (Shevchenko et al. (1996) Anal. Chem. 68:850). […] Eluting peptides were ionized by electrospray ionization and analyzed by an LCQ-DECA ion trap mass spectrometer (ThermoFinnigan). […]

Substance: CDC2/cyclinB1: pure kinase from New England Biolabs
- Separase phosphorylated at Ser1126 (pure kinase, LC-MS/MS): 88%
- Phosphorylation of Ser1126 by kinase (securin/separase from unsynchronized 293T cells): efficiently phosphorylated
